Values quoted from earlier work, collected in article PMC10313070, “Design, in silico and pharmacological evaluation of a peptide inhibitor of BACE-1” (Frontiers in Pharmacology, 2023).

System: Aβ levels
Design: method as in Wu et al., 2016
Details: ref Wu et al., 2016; cited from earlier work

pyrazinecarboxamide
Aβ levels in the rat brain: reduces Aβ levels
